UUG fidelity – modulators of start codon recognition fidelity in yeast; S. cerevisiae UUG-firefly luciferase reporter, luminescence/redox ratio; AID 602363; 350,000 tested, 0.13% active; activity score, % at 18.7 µM;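 active = replicate mean at a twofold rise or more, about +100% in these data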;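 also: firefly luciferase made from a UUG start codon reports start codon fidelity; reporter light over untreated wells divided by growth signal over untreated wells; some hits fall short of that in this replicate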
ALR inh – inhibitors of human ALR sulfhydryl oxidase, primary screen, biochemical, H2O2 detection, HRP-luminol luminescence, single point; FAD-linked sulfhydryl oxidase ALR (Homo sapiens), P55789; purified ALR, DTT oxidation; inhibition, % (concentration not given with the values); AID 485317, 2010; actives 3.8% (n = 290,000);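 active means mean and each replicate at 75% or more; inconclusive means only one of the two met; inactive means neither met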;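 further: stock transfer was 7.5 nL into about 7.5 µL; 0% = neutral wells and 100% = wells with inactivated enzyme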
MC4R barr agon – MC4R agonists recruiting beta-arrestin, primary screen, cell-based, luminescence, agonist arm of biased-ligand search; U2OS MC4R beta-arrestin complementation; percent of melanotan II response, DMSO zero; activation, % at 8.9 µM; hit rate 0.98% among 360,000; Melanocortin receptor 4 (Homo sapiens), P32245;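 active = activation above a per-plate cutoff, the mean activation of sample wells on that plate plus 3 SD, cut at about 8% in these data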
HDAC3 inhib – HDAC3 deacetylase inhibitors, primary screen, biochemical, fluorescence, cell-free homogeneous; recombinant HDAC3, fluorogenic peptide/trypsin coupled; inhibition, % at 8.3 µM; hit rate 0.15% among 320,000; in the data active = inhibition above about 26%, passing the limit was not always enough
NALP1 inh – NALP1 inflammasome inhibitors in reconstituted yeast, colorimetric, S. cerevisiae, triplicate retest; hit rate 0.61% among 280,000; inhibition, % at 10 µM; AID 2071, 2009; S. cerevisiae NALP1/ASC/caspase-1 growth, X-gal OD620, 72 h; in the data active = inhibition mostly above about 24%, no sharp cut-off; inactive = mostly below about 32%
MC4R antag cAMP – MC4R antagonists of cAMP signaling, primary screen, cell-based, TR-FRET, antagonist arm of biased-ligand search. inhibition, % at 6.5 µM. MC4R-expressing cells, MTII-stimulated cAMP, LANCE TR-FRET. hit rate 0.48% among 360,000;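 active = inhibition above its plate's cutoff, the mean of tested wells on that plate plus 3 SD, cut at about 29% in these data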;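 also: 0% = Melanotan II alone and 100% = Melanotan II plus saturating MCL0020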
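material = U2OS cells stably expressing human melanocortin 4 receptor (MC4R) | also added = Melanotan II challenge | dosing = single nominal compound dose of 6.5 µM | detection = TR-FRET with Eu-cAMP and labeled anti-cAMP, 671 nm | replication = singlicate | timing = compound 30 min, challenge 1 h, detection 1 h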
MC4R barr ag – MC4R beta-arrestin agonists, retest, confirmation, cell-based, luminescence, U2OS; shares compounds with MC4R barr agon; hit rate 31% among 2,400; U2OS MC4R beta-arrestin recruitment; scaled DMSO 0%, Melanotan II 100%; activation, % at 8.9 µM; AID 602192, 2012;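 active = mean activation across replicates above the hit cutoff set in the earlier primary screen, cut at about 8% in these data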
MOR DOR agonist – agonists of MOR-DOR heterodimerization, counter-screen for MC4R biased agonist project, cell-based, luminescence; U2OS PathHunter beta-arrestin, beta-gal luminescence; percent of deltorphin B response, DMSO zero; hit rate 5.8% among 2,400; AID 602194, 2012; activation, % at 9.2 µM; shares compounds with MC4R barr agon;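 active = mean activation across replicates exceeds the hit threshold derived in the earlier primary screen, cut at about 18% in these data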;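 also: 100% = deltorphin B at 0.9 µM final and 0% = DMSO alone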
* = called active by the depositor; . = not tested or not shown. In the library only some 4.2% were active in any assay of this set; here they are far more common.

The chains behind the UniProt entries cited, without tags or fusion partners.
Melanocortin receptor 4 (Homo sapiens), P32245, UniProt P32245, whole entry, looked up: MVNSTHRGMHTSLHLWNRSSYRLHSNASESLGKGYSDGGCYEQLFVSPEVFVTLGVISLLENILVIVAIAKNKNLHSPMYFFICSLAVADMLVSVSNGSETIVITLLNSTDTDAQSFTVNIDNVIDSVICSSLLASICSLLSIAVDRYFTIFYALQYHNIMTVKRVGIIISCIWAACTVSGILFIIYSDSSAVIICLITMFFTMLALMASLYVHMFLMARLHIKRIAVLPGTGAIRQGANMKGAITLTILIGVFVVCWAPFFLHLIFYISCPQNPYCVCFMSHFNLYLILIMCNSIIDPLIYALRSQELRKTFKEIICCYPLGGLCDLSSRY

| nr | Molecule | UUG fidelity | NALP1 inh | ALR inh | MC4R barr ag | MOR DOR agonist | HDAC3 inhib | MC4R barr agon | MC4R antag cAMP |
| --- | --- | --- | --- | --- | --- | --- | --- | --- | --- |
| 1 | CCCN1[C@H](C(=O)NC2Cc3ccccc3C2)[C@@H](CO)[C@@H]2Cn3c(ccc(C4=CCCC4)c3=O)[C@@H]21 | 1.4 | . | . | . | . | . | . | . |
| 2 | CCCCCc1c2c(cc(O)c1C(=O)O)OC(=O)c1c(cc(OC)cc1C(=O)CCCC)O2 | -18.8 | -3.2 | 98.3* | 4.4 | 2.5 | 5.5 | 11.4* | 23.6 |
| 3 | Cc1cc(C(=O)Nc2cccc3c2O[C@H](CN(C)C(=O)Nc2cccc4ccccc24)[C@@H](C)CN([C@@H](C)CO)C3=O)n(C)n1 | -18.9 | . | . | . | . | . | . | . |
| 4 | O=C(/C=C/c1ccc(OCCCF)cc1)NCc1ccc(Cl)cc1 | -15.6 | 10.0 | 6.5 | 2.5 | 4.4 | 3.8 | 15.2* | -1.4 |
| 5 | COCC(=O)Nc1ccc2c(c1)C(=O)N(C)[C@@H]1CC[C@@H](CC(=O)O)O[C@H]1CO2 | 1.4 | . | . | . | . | . | . | . |
| 6 | Cc1ccc(-c2nc(C=Nc3ccccc3)c(O)o2)cc1 | . | 13.4 | 8.4 | . | . | -3.5 | -0.2 | -0.6 |
| 7 | Cc1ccc(-c2nc(C=Nc3cccc(C)c3)c(O)o2)cc1 | . | 13.6 | -3.6 | 6.6 | 0.9 | 0.4 | 13.8* | -2.5 |
| 8 | C[C@H]1CN([C@@H](C)CO)C(=O)Cc2cc(NC(=O)Nc3ccc4c(c3)OCO4)ccc2O[C@@H]1CN(C)C | 0.5 | . | . | . | . | . | . | . |
| 9 | CCN(CCNCC(O)COc1ccccc1C(C)C)c1cccc(C)c1 (stereo not drawn) | -2.9 | 15.2 | 99.1* | 12.2* | 11.9 | -1.3 | 16.3* | 7.7 |
| 10 | COc1ccccc1-c1ccc2c(c1)O[C@@H](CN(C)Cc1ccc3c(c1)OCO3)[C@@H](C)CN([C@@H](C)CO)S2(=O)=O | -1.9 | . | . | . | . | . | . | . |
| 11 | CCOC(=O)c1ccc(Nc2nc(C)nc3c2nnn3Cc2ccccc2)cc1 | -12.9 | 11.4 | -0.6 | 3.2 | 5.7 | -4.2 | 20.1* | 3.7 |
| 12 | O=C(Nc1nc2cc3c(cc2s1)OCO3)c1cccc(N2C(=O)CCC2=O)c1 | -22.8 | . | -6.2 | . | . | 5.4 | 1.5 | 8.7 |

Continued; the last four above are carried over.
| nr | Molecule | UUG fidelity | NALP1 inh | ALR inh | MC4R barr ag | MOR DOR agonist | HDAC3 inhib | MC4R barr agon | MC4R antag cAMP |
| --- | --- | --- | --- | --- | --- | --- | --- | --- | --- |
| 9 | CCN(CCNCC(O)COc1ccccc1C(C)C)c1cccc(C)c1 (stereo not drawn) | -2.9 | 15.2 | 99.1* | 12.2* | 11.9 | -1.3 | 16.3* | 7.7 |
| 10 | COc1ccccc1-c1ccc2c(c1)O[C@@H](CN(C)Cc1ccc3c(c1)OCO3)[C@@H](C)CN([C@@H](C)CO)S2(=O)=O | -1.9 | . | . | . | . | . | . | . |
| 11 | CCOC(=O)c1ccc(Nc2nc(C)nc3c2nnn3Cc2ccccc2)cc1 | -12.9 | 11.4 | -0.6 | 3.2 | 5.7 | -4.2 | 20.1* | 3.7 |
| 12 | O=C(Nc1nc2cc3c(cc2s1)OCO3)c1cccc(N2C(=O)CCC2=O)c1 | -22.8 | . | -6.2 | . | . | 5.4 | 1.5 | 8.7 |
| 13 | O=C(Nc1nc2cc3c(cc2s1)OCO3)c1ccc(N2C(=O)CCC2=O)cc1 | -8.3 | . | . | -0.2 | 12.5 | -7.3 | 11.9* | 14.9 |
| 14 | C[C@@H]1CN([C@H](C)CO)C(=O)c2cc(NC(=O)Nc3cccc4ccccc34)ccc2O[C@@H](C)CCCCO[C@H]1CN(C)Cc1ccncc1 | 9.3 | . | . | . | . | . | . | . |
| 15 | O=C(CSc1ccccc1Cl)NC1CCCc2ccccc21 (stereo not drawn) | . | 17.9 | -5.6 | . | . | 0.8 | -0.8 | 3.9 |
| 16 | O=C(CSc1c(Cl)cccc1Cl)NC1CCCc2ccccc21 (stereo not drawn) | 4.0 | 35.8 | . | -2.8 | 3.9 | . | 31.1* | 3.2 |
| 17 | O=C(CSc1ccc(Cl)cc1)NC1CCCc2ccccc21 (stereo not drawn) | -13.9 | 29.7 | -8.7 | 3.0 | 5.5 | 1.1 | 10.9* | 2.6 |
| 18 | C[C@@H]1CN([C@H](C)CO)C(=O)c2cc(-c3ccc(F)cc3)cnc2O[C@H]1CN(C)C(=O)Nc1ccccc1F | 13.0 | . | . | . | . | . | . | . |
| 19 | CO[C@@H]1CN(C)C(=O)c2ccc(NC(=O)c3ccccc3)cc2OC[C@H](C)N(CC2CC2)C[C@H]1C | 9.0 | . | . | . | . | . | . | . |
| 20 | CCC(C)c1ccc(OCCn2cc(/C=N/NC(=O)CSc3nnc(C)s3)c3ccccc32)cc1 (stereo not drawn) | -1.9 | 30.1 | -8.5 | 4.8 | 5.3 | 5.5 | 15.7* | 15.9 |
| 21 | Cc1cccc(OCCn2cc(/C=N/NC(=O)c3ccncc3)c3ccccc32)c1 | . | 27.7 | -0.1 | . | . | 8.5 | -1.2 | 9.2 |
| 22 | CCOC(=O)c1ccc(Nc2nc(-c3cccnc3)nc3ccccc23)cc1 | -31.6 | 7.9 | -0.9 | 0.0 | 6.7 | -0.5 | 56.9* | 10.8 |
| 23 | Cc1ccc(Nc2nc(-c3cccnc3)nc3ccccc23)cc1 | 9.9 | 17.1 | . | . | . | 7.9 | -0.8 | 5.2 |
| 24 | COc1ccc(NC(=O)N(C)C[C@@H]2Oc3c(NS(=O)(=O)c4cccs4)cccc3C(=O)N([C@@H](C)CO)C[C@@H]2C)cc1 | 6.1 | . | . | . | . | . | . | . |

Remaining list, next part.
| nr | Molecule | UUG fidelity | NALP1 inh | ALR inh | MC4R barr ag | MOR DOR agonist | HDAC3 inhib | MC4R barr agon | MC4R antag cAMP |
| --- | --- | --- | --- | --- | --- | --- | --- | --- | --- |
| 25 | Cc1cc(N2CCN(c3ccccc3)CC2)nc2ccccc12 | -15.8 | 14.8 | 18.0 | . | . | 5.3 | 1.6 | -2.1 |
| 26 | COc1ccc(N2CCN(c3cc(C)c4ccccc4n3)CC2)cc1 | -4.0 | -0.8 | -2.8 | 0.3 | 3.8 | -1.0 | 16.1* | -1.9 |
| 27 | COc1ccc(NC(=O)Nc2ccc3c(c2)C(=O)N([C@H](C)CO)C[C@@H](C)[C@@H](CN(C)CC2CCCCC2)O3)cc1 | -0.6 | . | . | . | . | . | . | . |
| 28 | COc1ccc2c(C)nc(Nc3nc(-c4ccccc4)cc(=O)[nH]3)nc2c1 | -15.4 | -9.5 | 0.9 | 8.4* | 3.5 | . | 26.2* | -17.4 |
| 29 | Cc1ccc2nc(Nc3nc(-c4ccccc4)cc(=O)[nH]3)nc(C)c2c1 | 5.0 | -8.7 | . | . | . | -3.7 | -0.6 | -7.9 |
| 30 | O=C(N/N=C1\CC(c2ccccc2)Oc2ccccc21)c1ccc(O)cc1 (stereo not drawn) | -0.2 | 10.0 | -5.2 | . | . | 8.3 | -0.2 | 8.5 |
| 31 | O=C(N/N=C1/CC(c2ccccc2)Oc2ccccc21)C1CC1 (stereo not drawn) | . | 17.9 | -1.6 | 8.7* | 9.0 | -3.5 | 9.6* | 9.7 |
| 32 | O=C(O)CCN1C(=O)/C(=C/c2cn(-c3ccccc3)nc2-c2cccs2)SC1=S | . | -1.4 | . | 1.4 | 1.7 | . | 26.5* | 9.4 |
| 33 | O=C(O)CCCCCN1C(=O)/C(=C\c2cn(-c3ccccc3)nc2-c2cccs2)SC1=S | -6.4 | -6.4 | -1.7 | 10.0* | 2.8 | 3.0 | 26.3* | 16.2 |
| 34 | CCCC(=O)Nc1ccc2c(c1)C(=O)N(C)C[C@@H](OC)[C@H](C)CN(C(=O)c1cnccn1)[C@@H](C)CO2 | 2.1 | . | . | . | . | . | . | . |
| 35 | C[C@H]1CN([C@@H](C)CO)C(=O)c2cc(C#CC3CC3)cnc2O[C@H]1CN(C)C(=O)c1ccccc1 | -0.7 | . | . | . | . | . | . | . |
| 36 | CCCCNC(=S)N(C)/N=C/c1ccc(OCC(=O)Nc2ccc(OC)cc2)c(OC)c1 | . | -29.9 | . | . | . | 17.5 | 2.2 | -0.7 |
| 37 | CCCCNC(=S)N(C)/N=C/c1ccc(OCC(=O)Nc2c(C)cc(C)cc2C)c(OC)c1 | . | -17.7 | -4.0 | 11.3* | 7.5 | 10.2 | 14.1* | 11.8 |

Bioassay records (PubChem)
